Laboratory results published in patent publication US10335503B2, “Compound that specifically binds to AMPA receptor” (Public University Corporation Yokohama City University, priority 2015, dated 2019).

The chains behind the UniProt entries cited, without tags or fusion partners.
UniProt P21452, whole entry: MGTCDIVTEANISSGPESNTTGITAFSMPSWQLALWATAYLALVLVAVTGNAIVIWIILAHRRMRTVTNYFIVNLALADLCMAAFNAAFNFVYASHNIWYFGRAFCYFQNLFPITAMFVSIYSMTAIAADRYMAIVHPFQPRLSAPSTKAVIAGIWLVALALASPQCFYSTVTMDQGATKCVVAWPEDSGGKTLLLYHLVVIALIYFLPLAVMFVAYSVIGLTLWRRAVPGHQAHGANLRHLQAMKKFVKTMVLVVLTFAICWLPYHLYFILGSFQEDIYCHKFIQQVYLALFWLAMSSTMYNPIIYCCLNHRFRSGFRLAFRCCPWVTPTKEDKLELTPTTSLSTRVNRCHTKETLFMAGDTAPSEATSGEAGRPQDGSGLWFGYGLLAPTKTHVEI
UniProt P35368, whole entry: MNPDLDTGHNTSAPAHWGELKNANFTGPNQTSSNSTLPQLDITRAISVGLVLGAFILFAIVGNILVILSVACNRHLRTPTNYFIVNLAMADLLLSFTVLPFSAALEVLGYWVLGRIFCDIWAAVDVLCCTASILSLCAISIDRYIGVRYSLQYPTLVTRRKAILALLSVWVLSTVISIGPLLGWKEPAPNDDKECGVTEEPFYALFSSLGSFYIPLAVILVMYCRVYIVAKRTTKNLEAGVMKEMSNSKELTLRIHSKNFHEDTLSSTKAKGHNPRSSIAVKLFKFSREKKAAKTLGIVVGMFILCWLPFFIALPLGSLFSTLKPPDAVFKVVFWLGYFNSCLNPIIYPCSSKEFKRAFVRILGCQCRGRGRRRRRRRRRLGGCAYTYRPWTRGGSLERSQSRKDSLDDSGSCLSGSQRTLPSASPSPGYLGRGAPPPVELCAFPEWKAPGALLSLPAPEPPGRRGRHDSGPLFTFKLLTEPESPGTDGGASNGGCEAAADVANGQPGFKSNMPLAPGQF

How the values were obtained:
Conditions in all cases: Positive substance, concentration not given
[1] = target: Neurokinin NK2 (Homo sapiens, UniProt P21452); experiment: Receptor binding panel: Neurokinin NK2
[2] = target: T1, α1A-Adrenergic (Homo sapiens, UniProt P35348); experiment: Receptor binding panel: α1A-Adrenergic
T1 sequence (P35348 1-466): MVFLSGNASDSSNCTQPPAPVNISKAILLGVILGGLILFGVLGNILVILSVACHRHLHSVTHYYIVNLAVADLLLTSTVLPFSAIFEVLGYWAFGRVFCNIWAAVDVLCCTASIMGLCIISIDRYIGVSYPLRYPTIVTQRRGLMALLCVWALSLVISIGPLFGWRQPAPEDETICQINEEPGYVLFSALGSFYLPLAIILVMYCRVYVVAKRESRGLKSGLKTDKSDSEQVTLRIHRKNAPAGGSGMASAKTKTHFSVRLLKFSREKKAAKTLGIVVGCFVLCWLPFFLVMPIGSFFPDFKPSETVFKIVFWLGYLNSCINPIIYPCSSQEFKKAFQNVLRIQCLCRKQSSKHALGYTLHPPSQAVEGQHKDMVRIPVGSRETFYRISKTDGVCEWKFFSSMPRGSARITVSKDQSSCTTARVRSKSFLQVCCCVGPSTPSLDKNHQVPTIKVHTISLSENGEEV

[3] = target: α1B-Adrenergic (Homo sapiens, UniProt P35368); experiment: Receptor binding panel: α1B-Adrenergic

Compound	Inhibition (%) [1]	Inhibition (%) [2]	Inhibition (%) [3]
Neurokinin A [reference compound]	100.00%		
COc1cc2nc(N3CCN(C(=O)c4ccco4)CC3)nc(N)c2cc1OC [Prazosin, reference compound]		100.00%	100.00%
